# According to PubChem BioAssay AID1777 (Sanford-Burnham Center for Chemical Genomics, 2009):
# The chains behind the UniProt entries cited, without tags or fusion partners. Where a name states a change or a piece, a line headed by the entry shows the natural chain unless it says otherwise.
# UniProt P41145: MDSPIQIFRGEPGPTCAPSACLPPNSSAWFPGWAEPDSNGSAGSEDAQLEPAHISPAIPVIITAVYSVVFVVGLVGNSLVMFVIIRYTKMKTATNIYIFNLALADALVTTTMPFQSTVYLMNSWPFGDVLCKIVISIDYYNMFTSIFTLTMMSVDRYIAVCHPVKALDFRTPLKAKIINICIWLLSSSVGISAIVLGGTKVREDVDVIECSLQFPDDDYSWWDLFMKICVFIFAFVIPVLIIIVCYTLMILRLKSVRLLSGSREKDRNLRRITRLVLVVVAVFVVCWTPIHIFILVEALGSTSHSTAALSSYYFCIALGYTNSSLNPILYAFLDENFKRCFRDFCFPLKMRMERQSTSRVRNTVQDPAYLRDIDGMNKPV
# The list shows a part of the results. Results with a measured potency or affinity are listed apart. Active and inactive are the calls of the source. Rule as the data show it: active = activation above about 50% (passing the limit was not always enough); inactive = the rest.
# Target: Kappa-type opioid receptor (Homo sapiens) (UniProt P41145)
# Experiment: kappa opioid receptor activators – cell-based, luminescence, uHTS, primary screen (AID 1777)
# Settings: KOR beta-arrestin recruitment, at 10 µM, active compounds read high
row,Compound,activation
1,Cc1nc2ccccc2n1CC(=O)NC(C)C1CC2CCC1C2 (centres undefined),inactive: -2.5%
2,CCc1ccc(C(C)NC(=O)Cn2cnc3c(=O)n(C)c(=O)n(C)c32)cc1 (centres undefined),inactive: 0.7%
3,C[N+]1=C2C=CC=CC=C2SC12C([N+](=O)[O-])=CC([N+](=O)[O-])=C[C-]2[N+](=O)[O-] (centres undefined),inactive: -2.4%
4,Cc1ccc2c(c1)C1CN(C)CCC1N2C(=O)Cn1cnc2c1c(=O)n(C)c(=O)n2C (centres undefined),inactive: 1.1%
5,Nc1ccc([As](=O)(O)c2ccc(N)cc2)cc1,inactive: 2.4%
6,C[C@H](NC(=O)N1CCn2c1nc1ccccc12)C(=O)NC1CCCCC1,inactive: 0.8%
7,c1ccc(CCn2nnnc2CN2CCC(n3nnc4ccccc43)CC2)cc1,inactive: -3.9%
8,CCC(CC)NC(=O)Cn1c(C(C)NC(C)=O)nc2ccccc21 (centres undefined),inactive: 3.2%
9,FC(F)(F)c1ccc2c(c1)nnn2C1CCN(Cc2nnnn2Cc2ccccc2)CC1,inactive: 7.9%
10,COc1ccc2nc(NC(=O)Cn3cnc4c(=O)n(C)c(=O)n(C)c43)sc2c1,inactive: 1.9%
11,CCC(=O)Nc1ccc(NC(=S)NC(=O)/C=C/c2ccccc2)cc1,inactive: 4.2%
12,CCSc1nc2ccccc2n1CC(=O)N1CCCCC1,inactive: -0.8%
13,Cc1nc2ccccc2n1CC(=O)NC1CCCCCC1,inactive: -0.4%
14,O=C1CC(C(=O)Nc2cccc(F)c2)n2c(nc3ccccc32)N1 (centres undefined),inactive: -1.5%
15,CC1CCN(C(=O)Oc2c(Cl)cc(Cl)c3cccnc23)CC1,inactive: -2.5%
16,CNC(=O)Cc1nc2ccccc2n1CC(=O)Nc1cc(C)cc(C)c1,inactive: -0.8%
17,N=c1n(CCN2CCOCC2)c2ccccc2n1CC(=O)c1cccc([N+](=O)[O-])c1,inactive: 4.2%
18,CN(C)C(=O)OCCc1n(C)cc[n+]1C,inactive: -2.9%
19,CC(C)=N/N=C(\N)N[N+](=O)[O-],inactive: 2.2%
20,Cn1c(=O)n(CC(=O)N2CCN(c3nnc(-c4ccccc4)c4ccccc34)CC2)c2ccccc21,inactive: 5.6%

row,Compound,activation
1,NNC(=O)Cn1c(SCc2ccccc2)nc2ccccc21,inactive: -11.6%
2,CCN(CC)CCn1c(NCc2cccc(OC)c2OC)nc2ccccc21,inactive: 6.7%
3,CN1CCC(N(C)c2ncnc3ccc(Br)cc23)CC1,inactive: -2.5%
4,Cn1c(=O)c2c(ncn2CC(=O)N2CCN(c3ccc([N+](=O)[O-])cc3)CC2)n(C)c1=O,inactive: 3%
5,CCc1nc2ccccc2n1CC(=O)N(C(C)CC)C1CCS(=O)(=O)C1 (centres undefined),inactive: 2.4%
6,N=c1n(CCN2CCCCC2)c2ccccc2n1CC(O)c1ccco1 (centres undefined),inactive: 6.5%
7,O=C(Cn1c(NCCO)nc2ccccc21)N1CCN(Cc2ccccc2)CC1,inactive: 2%
8,Nc1ccccc1CNc1nc(NCCO)nc2c1ncn2CCN1CCOCC1,inactive: -1.1%
9,Cn1c(=O)c2c(ncn2CC(=O)Nc2ccccc2)n(C)c1=O,inactive: -3.3%
10,NC(=O)CC(NC(=O)c1ccccc1)c1ccc(NC2CCN(Cc3ccccc3)CC2)c([N+](=O)[O-])c1 (centres undefined),inactive: -6.2%
11,N#CCC(=O)N/N=C\c1cc(Br)ccc1OC/C=C/c1ccccc1,inactive: -5.6%
12,Cc1ccc2c(c1)C1CN(C)CCC1N2S(=O)(=O)c1ccc(Oc2ccc([N+](=O)[O-])cc2)cc1 (centres undefined),inactive: 4.7%
13,Cc1ccc(SCc2nc3ccccc3n2CC(=O)Nc2ccccc2)cc1,inactive: 1%
14,Cc1cc(NC(=O)CSc2nc3ccccc3n2CC(=O)N2CC(C)CC(C)C2)no1 (centres undefined),inactive: -6.6%
15,c1ccc(CN2CCC3(CC2)Nc2ccccc2CO3)cc1,inactive: -2.5%
16,CCOC(=O)CSc1nc2ccccc2n1CC(=O)N1CCN(c2ccccc2)CC1,inactive: 6.9%
17,Cn1c(=O)c2c(ncn2CC(=O)N2CCN(c3ccccc3F)CC2)n(C)c1=O,inactive: 1%
18,CCN(CC)CCn1c(=N)n(CCO)c2ccccc21,inactive: -4.8%
19,COc1ccc(C2=NCC(CBr)S2)cc1 (centres undefined),inactive: 9.2%
20,Cn1c(=O)c2c(ncn2CC(=O)N/N=C/c2ccco2)n(C)c1=O,inactive: -2.2%

row,Compound,activation
1,CC(=O)N1CCc2cc(S(=O)(=O)NC(CC(C)C)C(=O)N3CCn4c3nc3ccccc34)ccc21 (centres undefined),inactive: 2.1%
2,CCC(=O)Nc1cccc(C(=O)/C=C/c2cccs2)c1,inactive: -4.4%
3,CCC(C)[C@H](NC(=O)N1CCn2c1nc1ccccc12)C(=O)NCCc1ccccc1 (some centres undefined),inactive: 0%
4,O=C(NC1CCCCC1)N1CCC(n2c(=O)[nH]c3ccccc32)CC1,inactive: 9.1%
5,Cn1c(=O)c2c(nc(Sc3nc4ccccc4n3CC(=O)N3CCCCC3)n2C)n(C)c1=O,inactive: -4.3%
6,O=[N+]([O-])c1cc([N+](=O)[O-])c(CCNc2ccccc2)c([N+](=O)[O-])c1,inactive: -0.6%
7,CCc1nc2c(n1)c1c(non1O)c1c2no[n+]1[O-],inactive: -1.7%
8,Cn1c(=O)[nH]c(=O)c2c1nc(CN1CCN(Cc3ccccc3)CC1)n2CC(N)=O,inactive: -3.8%
9,Cc1csc2ncnc(NC3CCN(Cc4ccccc4)CC3)c12,inactive: -0.9%
10,N=c1n(CCN2CCCCC2)c2ccccc2n1CC(O)COc1ccccc1 (centres undefined),inactive: 0.2%
11,Cc1ccc(OCC(O)Cn2c(=N)n(CCN3CCOCC3)c3ccccc32)cc1 (centres undefined),inactive: 3.4%
12,COC(=O)c1ccc(NC(=O)Cn2c(-c3nonc3N)nc3ccccc32)cc1,inactive: 0%
13,Cc1ccc(NP(=O)(Oc2ccccc2)Oc2ccccc2)nc1,inactive: 3.9%
14,CC1CC(C)CN(C(=O)Cn2c(-c3nonc3N)nc3ccccc32)C1 (centres undefined),inactive: -6.6%
15,O=[N+]([O-])c1ccc(NC2CCN(Cc3ccccc3)CC2)c([N+](=O)[O-])c1,inactive: -2.8%
16,Cc1nc2ccccc2n1CC(=O)N/N=C/c1cccs1,inactive: -1.8%
17,COC(=O)c1ccccc1NC(=O)Cn1cnc2cc(C)c(C)cc21,inactive: -5.7%
18,CSCC[C@H](NC(=O)N1CCn2c1nc1ccccc12)C(=O)N[C@H](Cc1ccccc1)C(=O)O,inactive: -0.8%
19,CCOc1ccccc1OCC(=O)NNC(=O)Cn1cnc2c1c(=O)n(C)c(=O)n2C,inactive: -3.5%
